Test results as given in patent US8741930B2 (dated 2014).

Amino acid sequences for entries named in this document (tags omitted). A change or cut given only in a name is not applied to a line headed by its entry.
UniProt P11229: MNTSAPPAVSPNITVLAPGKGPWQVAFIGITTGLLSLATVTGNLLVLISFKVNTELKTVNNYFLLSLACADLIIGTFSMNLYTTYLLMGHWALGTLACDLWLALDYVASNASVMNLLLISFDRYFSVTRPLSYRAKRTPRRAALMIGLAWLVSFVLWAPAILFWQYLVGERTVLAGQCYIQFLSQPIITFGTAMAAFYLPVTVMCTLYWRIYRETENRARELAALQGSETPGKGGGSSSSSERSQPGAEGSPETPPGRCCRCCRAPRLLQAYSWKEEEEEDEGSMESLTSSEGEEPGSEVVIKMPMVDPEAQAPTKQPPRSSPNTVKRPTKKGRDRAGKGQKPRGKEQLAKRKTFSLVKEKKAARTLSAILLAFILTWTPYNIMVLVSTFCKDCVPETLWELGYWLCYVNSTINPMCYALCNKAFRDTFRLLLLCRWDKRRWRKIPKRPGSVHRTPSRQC

Target: human recombinant muscarinic M-1 receptors (Homo sapiens, UniProt P11229)
Assay: biochemical

For `O=C1Cc2ccccc2C(=C2CCNCC2)c2ccsc21` (racemic) [Norketotifen], the IC50 was 1.44 µM.
